For the test, the system named is cardiac tissue proteins. The test is described as follows: Surfactant-aided protein extraction from insoluble cardiac tissue pellet, SDS-PAGE and protein assay. The note with it: for protein solubilization ability: 0.5% surfactant in 25 mM NH4HCO3, SDS-PAGE and Bradford protein assay (FIG. 16). As to the method:
Data presented were based on three independent experiments (n=3). Error bars represent standard error of the mean.
Protein extraction from cardiac tissue. The frozen tissue samples (˜500 mg) were cut into small pieces and washed with PBS buffer containing protease inhibitors and reducing agent (5 mM DTT, 1 mM PMSF, 1× protease inhibitor cocktail). […] The homogenate was centrifuged at 211,750×g using Beckman Ultracentrifuge and a Ti-80 rotor for 1 h. The supernatant after the first HEPES extraction was removed and saved as “E1” extraction. The HEPES extraction was repeated on the resulting pellet and saved as “E2”. After the second HEPES extraction, the tissue pellet was suspended in 25 mM NH4HCO3 and evenly divided into smaller aliquots. In one aliquot, 25 mM NH4HCO3 buffer with no surfactant (NS) was used in a 1:1 ratio (homogenate:buffer) and labeled as “E3”. In the other aliquots, surfactants (1% in 25 mM NH4HCO3) were individually added to the other aliquots in a 1:1 ratio (homogenate:surfactant) and labeled as “E3” following incubation and centrifugation.

Here are results for one substance from patent US11567085B2, “Photo-cleavable surfactants” (Wisconsin Alumni Research Foundation, priority 2018, dated 2023).

On to 4-hexylphenylazosulfonate, for which the protein solubilization ability result is recorded as “drastically better protein solubilization ability”. Also, the protein solubilization ability result (listed as Azo6) is on record as “drastically better protein solubilization ability”. Also, the “effectiveness in solubilizing proteins” value (0.5% surfactant in extraction buffer, E3 after HEPES extractions, SDS-gel and Pierce 660 nm protein assay (FIG. 2)) is given as “highly effective”.
